# Screens (PubChem BioAssay)
# PDI inh – blocks human protein disulfide isomerase activity; P07237; PDI insulin aggregation turbidity, A650, 90 min; inhibition, % at 10 µM; hit rate 0.052% among 350,000; AID 588391;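 active = mean inhibition across replicates of 30% or more, whatever share of single replicates reach that level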
# PglD inh – blocks C. jejuni PglD acetyltransferase activity | purified PglD enzyme, DTNB colorimetric CoA detection | AID 602405 | hit rate 0.098% among 360,000 | inhibition, % at 12.5 µM; in the data active = inhibition above about 16%, passing the limit was not always enough
# Yeast UUG start – alters start codon recognition fidelity in yeast; AID 602363; activity score, % at 18.7 µM; 350,000 tested, 0.13% active; S. cerevisiae UUG-firefly luciferase reporter, luminescence/redox ratio;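 active means replicate mean at a twofold rise or more, about +100% in these data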;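 further: firefly luciferase made from a UUG start codon reports start codon fidelity; reporter light over untreated wells divided by growth signal over untreated wells; some hits fall short of that in this replicate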
# ARNT-TACC3 inh – disrupts binding between human ARNT and TACC3. Q9Y6A5. AlphaScreen His-ARNT PAS-B/GST-TACC3 binding, luminescence; TACC3 fragment carries E629A point mutation. inhibition, % at 9.99 µM. hit rate 0.66% among 390,000. AID 623870;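 active = mean inhibition of replicates at least 50% and at least half of replicates each reaching 50%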;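 note: 0% = complete ARNT plus TACC3 wells and 100% = ARNT alone without TACC3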
# FGF22 binding – binders of recombinant human FGF22 by thermal shift | Q9HCT0 | SYPRO orange fluorescence; percent of sucrose octasulfate shift, DMSO zero | activity (Tm shift, normalised), % at 9.99 µM | hit rate 1.5% among 340,000;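 active = mean Tm shift, scaled 0 neutral to 100 positive control, at about 1.3% or above, every replicate too, limit read from the data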
# ERp5 inh – ERp5 (human) disulfide isomerase inhibition; ERp5 insulin aggregation, absorbance 650 nm, 90 min; AID 651711; hit rate 0.05% among 350,000; inhibition, % at 9.99 µM; Q15084;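 active = mean replicate inhibition above about 25%, with every replicate also reaching it, limit read from the data, passing the limit was not always enough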
# ARNT Alpha ctr – AlphaScreen artifact in ARNT/TACC3 counter-screen | AC50, µM (doses to about 68 µM), inactives show top-dose activity change, negative = signal decrease | shares compounds with ARNT-TACC3 inh | AID 651705 | His-ARNT PASB-GST AlphaScreen artifact counter-screen, luminescence | hit rate 50% among 1,200;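 active = every separate test run was called active for a drop in luminescence, with AC50 within twice the top valid dose, actives reach about 71 µM in these data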
# * hit, by the source's call; . = no result; [ ] = dose if it differs, or a comment. The list is not random: actives were taken first. Their share in the collection is about 1.9%.
1. COc1ccc(S(=O)(=O)N(C)C[C@@H]2Oc3c(NC(=O)C4CCOCC4)cccc3C(=O)N([C@@H](C)CO)C[C@H]2C)cc1
2. O=C(N[C@H]1CC[C@@H](CCn2cc(-c3ccccc3)nn2)O[C@H]1CO)c1ccccc1F
3. COc1ccc(S(=O)(=O)Nc2ccc3c(c2)C(=O)N([C@H](C)CO)C[C@H](C)[C@H](CN(C)C(=O)Nc2ccc(C(F)(F)F)cc2)OCCCC[C@H](C)O3)cc1
4. O=C(C[C@@H]1C=C[C@@H](NC(=O)Nc2ccc(F)cc2)[C@@H](CO)O1)NCc1ccccn1
5. O=C(O)c1ccc(Cl)c(S(=O)(=O)N2CCCC2)c1

assay / compound | 1 | 2 | 3 | 4 | 5
PDI inh | . | . | . | . | -1.0
PglD inh | -0.1 | -0.2 | 0.1 | 2.3 | .
Yeast UUG start | -0.7 | 9.8 | -14.8 | -13.0 | .
ARNT-TACC3 inh | -0.8 | -9.2 | 16.8 | 8.2 | -3.9
FGF22 binding | -0.3 | 0.0 | 0.0 | 0.2 | -0.3
ERp5 inh | -1.4 | -2.0 | 0.8 | 7.7 | -4.5
ARNT Alpha ctr | . | . | . | . | .

6. O=C(O)c1ccc(Br)c(S(=O)(=O)N2CCCC2)c1
7. CCC(=O)N(C)C[C@H]1Oc2cc(Br)ccc2S(=O)(=O)N([C@H](C)CO)C[C@@H]1C
8. CC(C)NC(=O)Nc1ccc2c(c1)C(=O)N([C@H](C)CO)C[C@@H](C)[C@H](CN(C)C)OCCCC[C@@H](C)O2
9. CC(C)NC(=O)N(C)C[C@@H]1OCCCC[C@@H](C)Oc2ccc(NC(=O)Cc3ccccc3)cc2C(=O)N([C@H](C)CO)C[C@@H]1C
10. CC(C)NC(=O)N(C)C[C@H]1OCCCC[C@H](C)Oc2ccc(NC(=O)Cc3ccccc3)cc2C(=O)N([C@H](C)CO)C[C@H]1C

assay / compound | 6 | 7 | 8 | 9 | 10
PDI inh | -15.8 | . | . | . | .
PglD inh | 17.5 | -0.8 | 2.4 | 1.4 | -3.9
Yeast UUG start | -21.0 | 9.1 | . | . | .
ARNT-TACC3 inh | 60.0* | 0.1 | -6.9 | -11.1 | 105.7*
FGF22 binding | . | -0.2 | -0.5 | -0.1 | .
ERp5 inh | 2.2 | -1.0 | -0.4 | 1.7 | -1.8
ARNT Alpha ctr | 10.0% | . | . | . | -2.9%[42 µM]

11. CC(C)NC(=O)Nc1ccc2c(c1)C(=O)N([C@@H](C)CO)C[C@H](C)[C@@H](CN(C)C)OCCCC[C@H](C)O2
12. CNC(=O)C[C@@H]1CC[C@H]2[C@@H](COc3ccc(NC(=O)Nc4ccc(F)cc4)cc3C(=O)N2C)O1
13. CCC(=O)NC(c1ccc(N(C)C)cc1)c1c(O)ccc2ccccc12 (centres undefined)
14. CCC(=O)NC(c1ccc(OC)cc1)c1c(O)ccc2ccccc12 (centres undefined)
15. CN1CCc2c(sc3c2C(=O)NC(c2ccccc2)N3)C1 (centres undefined)

assay / compound | 11 | 12 | 13 | 14 | 15
PDI inh | . | . | -1.8 | 0.1 | -2.2
PglD inh | 1.7 | -0.9 | -1.7 | 4.0 | 4.8
Yeast UUG start | . | 10.3 | 7.2 | 15.9 | -12.6
ARNT-TACC3 inh | 108.8* | 0.4 | 38.3* | . | -1.8
FGF22 binding | 0.3 | -0.2 | -0.2 | -0.3 | .
ERp5 inh | 1.1 | -2.5 | 1.8 | 1.6 | .
ARNT Alpha ctr | -0.6%[42 µM] | . | 54.2µM* | . | .

16. CN1CCc2c(sc3c2C(=O)NC(c2ccccn2)N3)C1 (centres undefined)
17. FC(F)(F)c1cnc(-c2cnc(-c3ccccn3)nc2)c(Cl)c1
18. FC(F)(F)c1cnc(-c2cnc(-c3ccncc3)nc2)c(Cl)c1
19. CC(=O)NC1=NC(=O)/C(=C/c2cn(C(C)=O)nc2-c2ccccc2)S1
20. N[C@@H]1CC[C@@H](CCn2cc(-c3ccccn3)nn2)O[C@H]1CO

assay / compound | 16 | 17 | 18 | 19 | 20
PDI inh | 1.5 | -0.1 | -0.9 | 7.2 | .
PglD inh | -4.1 | 5.0 | . | . | 4.8
Yeast UUG start | -23.7 | -50.3 | . | . | .
ARNT-TACC3 inh | active | 55.2* | 0.2 | 54.1* | 75.7*
FGF22 binding | . | 0.4 | 0.1 | 43.7* | 0.0
ERp5 inh | . | -3.0 | 1.7 | 0.5 | 5.5
ARNT Alpha ctr | 68.4µM* | -16.2% | . | -16.4% | 3.83µM*

21. N[C@H]1CC[C@H](CCn2cc(-c3ccccn3)nn2)O[C@@H]1CO
22. c1ccc(-c2cn(C[C@H]3CC[C@@H]([C@@H]4CC[C@H](Cn5cc(-c6ccccc6)nn5)O4)O3)nn2)cc1
23. c1ccc(-c2cn(C[C@H]3CC[C@@H]([C@@H]4CC[C@H](Cn5cc(-c6ccccn6)nn5)O4)O3)nn2)nc1
24. N[C@@H]1CC[C@@H](CCn2cc(-c3cccc(F)c3)nn2)O[C@H]1CO
25. CN(C)Cc1cn(CC[C@@H]2CC[C@H](N)[C@H](CO)O2)nn1

assay / compound | 21 | 22 | 23 | 24 | 25
PDI inh | . | 2.3 | 1.3 | . | .
PglD inh | -8.7 | 4.0 | 0.3 | -0.2 | -2.1
Yeast UUG start | . | -9.3 | -13.7 | -7.6 | -14.6
ARNT-TACC3 inh | 77.3* | -9.1 | 65.8* | 4.6 | -8.0
FGF22 binding | -0.2 | 0.1 | -0.2 | 0.3 | -0.1
ERp5 inh | -1.0 | -0.8 | -1.9 | 11.3 | -4.1
ARNT Alpha ctr | 5.3µM* | . | 10.9µM* | . | .

26. COCCCN=Cc1c(-c2ccccc2)[nH]n(-c2nc3ccccc3s2)c1=O
27. O=c1c(C=NCCCO)c(-c2ccccc2)[nH]n1-c1nc2ccccc2s1
28. Cc1cc(C)c(NC(=O)CSc2nnc(-c3ccccn3)n2N)c(Cl)c1
29. COc1ccc(NC(=O)CSc2nnc(-c3ccccn3)n2N)cc1Cl
30. Cc1ccc(C)c(-n2c(SCC(N)=O)nnc2-c2ccccn2)c1

assay / compound | 26 | 27 | 28 | 29 | 30
PDI inh | -0.6 | 0.9 | -2.0 | 8.7 | -3.1
PglD inh | 7.9 | . | -1.4 | 1.0 | 1.8
Yeast UUG start | -17.7 | . | -14.0 | -5.9 | -1.2
ARNT-TACC3 inh | 57.6* | 8.7 | 54.2* | 1.6 | 57.2*
FGF22 binding | 0.2 | 0.3 | 0.0 | . | .
ERp5 inh | 2.3 | -3.7 | 6.0 | . | .
ARNT Alpha ctr | -31.0% | . | -21.2% | . | -25.8%

# Quoted from the entries so far (3 entries):
7. CCC(=O)N(C)C[C@H]1Oc2cc(Br)ccc2S(=O)(=O)N([C@H](C)CO)C[C@@H]1C
8. CC(C)NC(=O)Nc1ccc2c(c1)C(=O)N([C@H](C)CO)C[C@@H](C)[C@H](CN(C)C)OCCCC[C@@H](C)O2
9. CC(C)NC(=O)N(C)C[C@@H]1OCCCC[C@@H](C)Oc2ccc(NC(=O)Cc3ccccc3)cc2C(=O)N([C@H](C)CO)C[C@@H]1C

assay / compound | 7 | 8 | 9
PDI inh | . | . | .
PglD inh | -0.8 | 2.4 | 1.4
Yeast UUG start | 9.1 | . | .
ARNT-TACC3 inh | 0.1 | -6.9 | -11.1
FGF22 binding | -0.2 | -0.5 | -0.1
ERp5 inh | -1.0 | -0.4 | 1.7
ARNT Alpha ctr | . | . | .

# (list continues)
31. Cc1ccc(C)c(CSc2nnc(-c3ccccn3)n2N)c1
32. O=C(NCCCn1ccnc1)C(=O)NCC1OCCCN1S(=O)(=O)c1ccc(Cl)cc1 (centres undefined)
33. O=C(NCCCn1ccnc1)C(=O)NCC1OCCCN1S(=O)(=O)c1ccc(F)cc1 (centres undefined)
34. O=C(NCCCn1ccnc1)C(=O)NCC1OCCN1S(=O)(=O)c1ccc(Cl)cc1 (centres undefined)
35. O=C(NCCCn1ccnc1)C(=O)NCC1OCCN1S(=O)(=O)c1ccccc1 (centres undefined)

assay / compound | 31 | 32 | 33 | 34 | 35
PDI inh | 4.3 | 6.8 | -0.2 | . | 22.6
PglD inh | 2.5 | . | . | -3.3 | .
Yeast UUG start | -28.5 | . | . | -7.5 | .
ARNT-TACC3 inh | -0.5 | 3.3 | . | 57.5* | 56.7*
FGF22 binding | . | . | 0.3 | -0.2 | 0.1
ERp5 inh | . | . | 4.6 | 1.2 | -7.6
ARNT Alpha ctr | . | . | . | 70.1µM* | 61.7µM*

36. O=C(NCCCn1ccnc1)C(=O)NCC1OCCCN1S(=O)(=O)c1ccccc1 (centres undefined)
37. CCS(=O)(=O)N1[C@@H](CO)[C@@H](c2ccccc2)C12CN(C(=O)C1CC1)C2
38. Cc1[nH]n(-c2ccccc2)c(=O)c1/C=N/NC(=O)COc1ccccc1[N+](=O)[O-]
39. COc1ccc(S(=O)(=O)n2oc(=O)cc2-c2ccccc2)cc1OC
40. COc1ccc(S(=O)(=O)n2oc(=O)cc2-c2ccccc2)cc1
41. O=C(C[C@H]1C=C[C@H](NC(=O)Cc2ccccn2)[C@H](CO)O1)NCCCN1CCOCC1

assay / compound | 36 | 37 | 38 | 39 | 40 | 41
PDI inh | 4.0 | . | -0.4 | -8.7 | -1.3 | .
PglD inh | -2.1 | . | . | -3.1 | -6.2 | -0.1
Yeast UUG start | -13.5 | . | . | -16.0 | -59.2 | 1.4
ARNT-TACC3 inh | 39.6* | . | 59.0* | active | 15.1 | -1.6
FGF22 binding | . | -0.1 | 0.5 | . | . | 0.0
ERp5 inh | . | -0.8 | 1.8 | . | . | 0.8
ARNT Alpha ctr | -11.2% | . | -26.3% | 7.84µM* | . | .
